Laboratory results: publication PMC4764553 (eLife, 2016)

Biological target: Xenopus laevis histone H2B 1.1 (in the NCP crystal) (Xenopus laevis, UniProt P02281 1-126)
Experiment: crystal structure
Settings: both partners purified

B1: IE1-CTD peptide (chromatin-tethering domain of hCMV IE1, a.a. 476–491) (peptide)
peptide: GGKSTHPMVTRSKADQ
binding result: binds
